Source: publication PMC4499159
pEC50: −log10 of the molar value. Each block holds one substance with its values, some of them ahead of it.

Tests used:
[1] = target: DNA polymerase β (rat) (UniProt P06766); assay: other fluorescence titration; FAM-labelled protein at 40 nM (fixed) titrated with the unlabelled partner; 50 mM HEPES pH 8.0, 100 mM NaCl, 4 mM DTT; excitation 485 nm, emission 520 nm; EC50 from a four-parameter logistic fit, an apparent equilibrium dissociation constant
[2] = target: apurinic/apyrimidinic endonuclease 1 (human) (UniProt P27695); assay: as above
[3] = target: FAM-APE1 mixed with PARP1 (APE1·PARP1) (human) (UniProt P27695); assay: FRET or BRET; FAM-APE1 (40 nM) with XRCC1 or PARP1 added at a 3-fold molar excess, TMR-Polβ at sub-saturating concentrations
[4] = target: FAM-APE1 mixed with XRCC1 (APE1·XRCC1) (human) (UniProt P27695); assay: as above
[5] = target: apurinic/apyrimidinic endonuclease 1 (human) (UniProt P27695); assay: other fluorescence titration; FAM-APE1 (40 nM) premixed with model DNA (160 nM; AP-DNA, incised AP-DNA, gap-DNA or nick-DNA), titrated with the unlabelled partner; binding buffer with 10 mM EDTA; apparent
[6] = target: DNA polymerase β (rat) (UniProt P06766); assay: FRET or BRET; FAM-labelled protein (donor, 40 nM, fixed) titrated with the TMR-labelled partner (acceptor); corrected for acceptor signal; E = 1 - Fda/Fd; EC50 is that of the TMR-labelled partner; 50 mM HEPES pH 8.0, 100 mM NaCl, 4 mM DTT; apparent
[7] = target: apurinic/apyrimidinic endonuclease 1 (human) (UniProt P27695); assay: as above
[8] = target: DNA polymerase β (rat) (UniProt P06766); assay: dynamic light scattering; individual proteins or equimolar mixtures at 6 μM; 25 mM HEPES pH 7.5, 100 mM NaCl, 1 mM DTT; 24°C; hydrodynamic radius compared with predicted values
[9] = target: poly(ADP-ribose) polymerase 1 (human) (UniProt P09874); assay: other fluorescence titration; FAM-Polβ or FAM-PARP1 (40 nM) premixed with model DNA (160 nM; incised AP-DNA, gap-DNA or nick-DNA), titrated with the unlabelled partner; binding buffer; apparent
[10] = target: poly(ADP-ribose) polymerase 1 (human) (UniProt P09874); assay: other fluorescence titration; FAM-labelled protein at 40 nM (fixed) titrated with the unlabelled partner; 50 mM HEPES pH 8.0, 100 mM NaCl, 4 mM DTT; excitation 485 nm, emission 520 nm; EC50 from a four-parameter logistic fit, an apparent equilibrium dissociation constant
[11] = target: X-ray repair cross-complementing protein 1 (human) (UniProt P18887); assay: other fluorescence titration; FAM-XRCC1 at 40 nM premixed with gap-DNA (32-mer 1-nt-gapped DNA) at a 3-fold molar excess, titrated with unlabelled Polβ; binding buffer; apparent
[12] = target: X-ray repair cross-complementing protein 1 (human) (UniProt P18887); assay: other fluorescence titration; TAF-labelled XRCC1 at 40 nM (fixed) titrated with the unlabelled partner; 50 mM HEPES pH 8.0, 100 mM NaCl, 4 mM DTT; EC50 from a four-parameter logistic fit, apparent
[13] = target: X-ray repair cross-complementing protein 1 (human) (UniProt P18887); assay: FRET or BRET; FAM-labelled protein (donor, 40 nM, fixed) titrated with the TMR-labelled partner (acceptor); corrected for acceptor signal; E = 1 - Fda/Fd; EC50 is that of the TMR-labelled partner; 50 mM HEPES pH 8.0, 100 mM NaCl, 4 mM DTT; apparent
[14] = target: poly(ADP-ribose) polymerase 1 (human) (UniProt P09874); assay: as above
[15] = target: FAM-labeled human apurinic/apyrimidinic endonuclease 1 (human) (UniProt P27695); assay: other fluorescence titration; 40 nM FAM-APE1 premixed with 160 nM gap-DNA, titrated with unlabeled partner; 50 mM HEPES pH 8.0, 100 mM NaCl, 4 mM DTT, 10 mM EDTA; EC50 from four-parameter fit, apparent
[16] = target: FAM-labeled human apurinic/apyrimidinic endonuclease 1 (human) (UniProt P27695); assay: other fluorescence titration; 40 nM FAM-APE1 premixed with 160 nM nick-DNA, titrated with unlabeled partner; 50 mM HEPES pH 8.0, 100 mM NaCl, 4 mM DTT, 10 mM EDTA; EC50 from four-parameter fit, apparent
[17] = target: FAM-labeled human apurinic/apyrimidinic endonuclease 1 (human) (UniProt P27695); assay: other fluorescence titration; 40 nM FAM-APE1 premixed with 160 nM AP-DNA, titrated with unlabeled partner; 50 mM HEPES pH 8.0, 100 mM NaCl, 4 mM DTT, 10 mM EDTA; EC50 from four-parameter fit, apparent
[18] = target: FAM-labeled human apurinic/apyrimidinic endonuclease 1 (human) (UniProt P27695); assay: other fluorescence titration; 40 nM FAM-APE1 premixed with 160 nM incised AP-DNA, titrated with unlabeled partner; 50 mM HEPES pH 8.0, 100 mM NaCl, 4 mM DTT, 10 mM EDTA; EC50 from four-parameter fit, apparent
[19] = target: FAM-labeled human poly(ADP-ribose) polymerase 1 (human) (UniProt P09874); assay: other fluorescence titration; 40 nM FAM-labeled protein (FAM-Polβ or FAM-PARP1) premixed with 160 nM gap-DNA, titrated with unlabeled partner; 50 mM HEPES pH 8.0, 100 mM NaCl, 4 mM DTT; EC50 from four-parameter fit, apparent
[20] = target: FAM-labeled human poly(ADP-ribose) polymerase 1 (human) (UniProt P09874); assay: other fluorescence titration; 40 nM FAM-labeled protein (FAM-Polβ or FAM-PARP1) premixed with 160 nM nick-DNA, titrated with unlabeled partner; 50 mM HEPES pH 8.0, 100 mM NaCl, 4 mM DTT; EC50 from four-parameter fit, apparent

Substance: DNA polymerase β (from UniProt P06766 1-335) (enzyme)
pEC50 [1]: 6.80
pEC50 [2]: 7.08
FRET efficiency E [3]: 0.06
FRET efficiency E [4]: 0.08
EC50 with AP-DNA / EC50 without DNA [5]: 1.1
EC50 with gap-DNA / EC50 without DNA [5]: 1.3
EC50 with incised AP-DNA / EC50 without DNA [5]: 2
EC50 with nick-DNA / EC50 without DNA [5]: 1.8
pEC50 [6]: 6.77
FRET efficiency E [6]: 0.35
pEC50 [7]: 7.03
FRET efficiency E [7]: 0.16
stoichiometry N [8]: 2

Substance: rat DNA polymerase β (from UniProt P06766 1-335) (enzyme; other documents disagree on this pair)
pEC50 [19]: 6.96
pEC50 [20]: 6.92

Next, values leading:

EC50 with gap-DNA / EC50 without DNA [9]: 1
EC50 with nick-DNA / EC50 without DNA [9]: 1.1
pEC50 [10]: 6.96
pEC50 [11]: 7.64
pEC50 [12]: 7.60
pEC50 [13]: 7.51
FRET efficiency E [13]: 0.41
pEC50 [14]: 6.96
FRET efficiency E [14]: 0.28
Substance: DNA polymerase β (from UniProt P06766 1-335) (enzyme; other documents disagree on this pair)

EC50 with AP-DNA / EC50 without DNA [5]: 1
EC50 with gap-DNA / EC50 without DNA [5]: 0.67
EC50 with incised AP-DNA / EC50 without DNA [5]: 1.1
FRET efficiency E [7]: 0.14
Substance: X-ray repair cross-complementing protein 1 (from UniProt P18887 1-633) (natural protein)

pEC50 [15]: 6.96
pEC50 [16]: 6.82
pEC50 [17]: 7.05
pEC50 [18]: 6.77
Substance: rat DNA polymerase β (from UniProt P06766 1-335) (enzyme)
